These results are taken from ChEMBL document CHEMBL1759903, “Pentacycloundecane-based inhibitors of wild-type C-South African HIV-protease” (Bioorg Med Chem Lett, 2011).

The target in the assay is Protease (Human immunodeficiency virus 1, UniProt Q9YQ12). Briefly: Inhibition of HIV1 subtype C protease expressed in Escherichia coli BL21 assessed as hydrolysis of substrate using chromogenic substrate Lys-Ala-Arg-Val-Nle-p-nitro-Phe-Glu-Ala-Nle-NH2 by spectrophotometric analysis.

Usually IC50 stands for the concentration needed to halve the response being measured.

SMILES strings stand for the structures.

On to `Cc1cccc(C)c1OCC(=O)N[C@@H](Cc1ccccc1)[C@@H](O)C[C@H](Cc1ccccc1)NC(=O)[C@H](C(C)C)N1CCCNC1=O` [LOPINAVIR], for which the IC50 was found to be 25 nM.
